TrxR1 substrate = is turned over as a substrate by rat TrxR1; purified TrxR1 substrate turnover, NADPH consumption readout; AID 588456; Potency, µM (top dose mostly 114 µM), without a hit: top-dose activity change, negative = substrate turnover; actives 0.01% (n = 390,000); O89049; further: potency means the concentration at half of the fitted maximal effect; on the % scale 0 is the no-effect control and ±100 the full control effect; nearly all actives have a fitted effect of over 50% in size
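Rat TrxR1, dispensed at 90 nM, was prereduced with 400 uM NADPH (final) for 5 min at ~22 deg C, then incubated with compound 15 min before 400 uM selenite. A first-read NADPH fluorescence drop versus no-compound background flagged substrates.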
PINK1 modulator = changes PINK1 expression | PINK1 immunofluorescence, high-content cytometry, 24 h | Potency, µM (series often up to 76.6 µM), for inactives: at the highest dose activation (PINK1 increase), most hits filed as activators | actives 0.2% (n = 410,000) | AID 624263; active means well fitted activation curve with a large enough effect; inconclusive means small, poorly fitted or top-dose-only effect; cell line not stated here; further: potency means the concentration at half of the fitted maximal effect; % of control where 0% means no effect; nearly all actives have a fitted effect of over 65% in size
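Decision-based qHTS: stable cells, 24 h exposure to five compound concentrations, CCCP as control. Fixed cells stained for PINK1 plus nuclear, mitochondrial and cell markers, cytometer read.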
GALK inhibitor = blocks human galactokinase activity; P51570; Purified GALK, Kinase-Glo residual ATP luminescence; Potency, µM (titrated, usually from 57.5 µM), for inactives: at the highest dose activity change, negative = inhibition, most hits filed as inhibitors; actives 0.007% (n = 270,000); further: potency means the concentration at half of the fitted maximal effect; on the % scale 0 is the no-effect control and ±100 the full control effect
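Compounds were pin-transferred into ATP buffer (35 uM final), then GALK plus galactose (5 nM, 100 uM final) was added. After 1 h at room temperature, Kinase-Glo Plus was added and luminescence read after 10 min.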
rTrxR1 inhibitor = rat TrxR1 inhibition. Potency, µM (series often up to 114 µM), inactives show at the highest dose activity change, negative = inhibition, hits mostly inhibitors. actives 1% (n = 390,000). AID 588453. recombinant rTrxR1, NADPH fluorescence consumption, selenite substrate; further: potency means the concentration at half of the fitted maximal effect; on the % scale 0 is the no-effect control and ±100 the full control effect; nearly all actives have a fitted effect of over 65% in size
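Rat TrxR1 (90 nM in the dispensed reagent) was pre-reduced with 400 uM NADPH for 5 min at room temperature, then incubated with compound for 15 min. After 400 uM selenite was added, NADPH fluorescence (Ex 340/Em 450 nm) was followed for 8 min.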
miR-21 reporter = miR-21 reporter, rising signal; 340,000 tested, under 10 active; Potency, µM (highest dose often 38.3 µM), for the others: top-dose reporter change, positive = more light; HeLa miR-21 FLuc reporter, luciferase, 48 h; active = well fitted rising curve with a large enough effect; inconclusive = small, poorly fitted or top-dose-only effect; inactive = no such curve, though single readings can be large or run the other way;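 further: % of control where 0% means no effect; miR-21 action dims this reporter so a rising signal means less miR-21 action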
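HeLa cells endogenously expressing miR-21, stably carrying CMV-driven firefly luciferase with a downstream miR-21 binding site, 2000 cells/well. Titrations up to approximately 40 uM, 48 hours; luciferase luminescence read.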
* hit, by the source's call; i = inactive; ? = inconclusive; . = no result; ! = repeats disagree; [ ] = another dose, or the depositor's remark. In the library only some 1.1% were active in any assay of this set; here they are far more common. Unless noted, the call rests on the fitted dose curve; in most records, active means well fitted curve in the direction sought with a large enough effect; inconclusive means small, poorly fitted or top-dose-only effect, or another doubt; inactive means no such curve, though single readings can be large; an effect the other way counts as inactive or inconclusive.

nr | PINK1 modulator | TrxR1 substrate | GALK inhibitor | rTrxR1 inhibitor | miR-21 reporter | structure
1 | 3% | 384% | . | 56µM* | -16% | Cc1c(CC(=O)NCCCO)c(=O)oc2cc3c(cc12)CCC(C)(C)O3
2 | 0% | 484% | 1% | -1% | -8% | Cc1c(CC(=O)NCC(=O)O)c(=O)oc2cc3c(cc12)CCC(C)(C)O3
3 | . | -4% | -1% | 14µM* | 1% | N#Cc1c(-c2ccco2)nc(SCC(=O)Nc2cccc(Cl)c2)[nH]c1=O
4 | 1% | -2% | . | 16% | 1% | CCOc1ccccc1NC(=O)C(C)Sc1nc(-c2ccccc2)c(C#N)c(=O)[nH]1 (stereo not drawn)
5 | 7% | 5% | 7% | 18µM* | 0% | CCc1ccc(NC(=O)C(C)Sc2nc(-c3ccco3)c(C#N)c(=O)[nH]2)cc1 (stereo not drawn)
6 | 0% | 3% | -2% | 32µM* | -9% | COc1ccc(C2C(CC(=O)O)=C(O)C(=O)N2c2ccccc2)cc1 (stereo not drawn)
7 | 4% | -4% | -2% | 50µM* | -7% | CC1(C)Cc2c(C#N)c(OCC(=O)c3ccccc3)nc(-c3ccoc3)c2CO1
8 | 0% | . | . | . | . | COc1ccccc1-c1ccc(C(=O)N(C)CC2COCCO2)c(N2CCN(c3ccccc3F)CC2)n1 (stereo not drawn)
9 | 40µM* | -3% | . | 2% | 1% | O=C(Nc1sc2c(c1C(=O)NCc1ccco1)CCCC2)c1cc(=O)c2cc(Cl)ccc2o1
10 | 3% | 5% | . | -11% | . | COC(=O)c1ccc(C2NC(c3ccc4c(c3)OCO4)=CC(c3ccccc3O)N2)cc1 (stereo not drawn)
11 | 16µM* | 6%[57.1 µM] | 0% | -11%[57.1 µM] | 23% | O=C(NNC(=S)Nc1cccc(C(F)(F)F)c1)c1cccc(Cl)c1
12 | ? | 3% | 1% | -10% | -13% | O=C(NNC(=S)Nc1cccc(C(F)(F)F)c1)c1ccccc1Cl
13 | 7% | 13% | . | 20% | -6% | CCc1ccc2occ(CC(=O)Nc3c(C(=O)Nc4ccc(Cl)cc4)oc4ccccc34)c2c1
14 | -1% | 9% | . | 89µM* | -19% | CCc1ccc2occ(CC(=O)Nc3c(C(=O)Nc4ccc(C)cc4)oc4ccccc34)c2c1
15 | -2% | -2% | 9% | 28µM* | -1% | Cc1ccc(S(=O)(=O)CCC(=O)N2CCN(c3ccc([N+](=O)[O-])cc3)CC2)cc1

Next part.
nr | PINK1 modulator | TrxR1 substrate | GALK inhibitor | rTrxR1 inhibitor | miR-21 reporter | structure
16 | 2% | 23%[57.1 µM] | . | 11µM*! | . | O=C(O)Cc1c[nH]c2ccc(O)cc12
17 | 1% | -1% | . | 4% | -2% | COc1ccc2[nH]cc(CC(=O)O)c2c1
18 | 1% | 1% | -1% | ? | 0% | Cc1cc(Br)c(NC(=O)CCl)c(Br)c1
19 | 27% | 0% | 0% | 50µM* | 28% | CC(C)c1cc(NC(=O)CCl)on1
20 | 8% | -1% | -2% | 12% | -5% | CCNC(=S)Nc1cc(OCC)c(NC(=O)c2ccco2)cc1OCC
21 | -3% | -2% | -2% | 71µM* | 3% | CCOc1cc(NS(=O)(=O)c2ccccc2)c(OCC)cc1NC(=O)c1ccco1
22 | -1% | -10% | -1% | 56µM* | -22% | O=C(NC(=S)Nc1cccnc1)c1cccc(Br)c1
23 | 1% | -18%[57.1 µM] | 1% | -60% | -39% | O=C(NC(=S)Nc1cccnc1)c1ccccc1
24 | 2% | -11% | 2% | 13µM* | -10% | Cc1ccccc1NC(=S)NC(=O)c1cncc(Br)c1
25 | 4% | -12% | 3% | 25µM* | -20% | CCCCOc1cccc(C(=O)NC(=S)Nc2cccnc2)c1
26 | 1% | . | . | . | . | CC(C)C(NS(C)(=O)=O)c1nnc2n1CCN(Cc1ccc(C#CC(C)(C)O)cc1)CC2 (stereo not drawn)
27 | 0% | -12% | . | -6% | 0% | Cc1ccc(C(=O)c2cn(Cc3ccc(F)cc3)c3nc(C)ccc3c2=O)cc1
28 | 16% | 37%[57.1 µM] | -2% | 51%[57.1 µM] | 2% | CC(C)c1ccc(-c2nc3c([nH]2)c(=O)n(C)c(=O)n3C)cc1
29 | 2% | i | . | 32µM*! | . | Cn1c(=O)c2[nH]c(-c3ccc(S(=O)(=O)O)cc3)nc2n(C)c1=O
30 | 4% | . | . | . | . | COc1cccc(CN2CCCC(c3nc(-c4ccncc4)ncc3-c3ccccc3)C2)c1O (stereo not drawn)

Records listed above shown as hits in PINK1 modulator.
nr | PINK1 modulator | TrxR1 substrate | GALK inhibitor | rTrxR1 inhibitor | miR-21 reporter | structure
9 | 40µM* | -3% | . | 2% | 1% | O=C(Nc1sc2c(c1C(=O)NCc1ccco1)CCCC2)c1cc(=O)c2cc(Cl)ccc2o1
11 | 16µM* | 6%[57.1 µM] | 0% | -11%[57.1 µM] | 23% | O=C(NNC(=S)Nc1cccc(C(F)(F)F)c1)c1cccc(Cl)c1

(listing goes on)
nr | PINK1 modulator | TrxR1 substrate | GALK inhibitor | rTrxR1 inhibitor | miR-21 reporter | structure
31 | 12%[38.3 µM] | 20%[57.1 µM] | 0% | 0.45µM* | -2% | C/C(=N\O)C(=O)C(CN1CCCCC1)CN1CCCCC1
32 | 40µM* | -8% | -2% | 11% | -48% | CCOC(=O)Cc1csc(NC(=O)c2sc3nc4ccc(CC)cc4cc3c2N)n1
33 | ? | -4% | -1% | 7% | -12% | CCOC(=O)Cc1csc(NC(=O)c2sc3nc4cc(C)ccc4cc3c2N)n1
34 | 17% | -14% | 2% | -19%[57.1 µM] | -11% | Fc1ccc(-n2c(=S)[nH]c3cccnc32)cc1
35 | 40µM* | -9% | 3% | -11% | 3% | FC(F)(F)c1cnc2c(c1)[nH]c(=S)n2-c1ccc(Cl)cc1
36 | 0% | 2%[57.1 µM] | 1% | 25%[57.1 µM] | 6% | C/C(=N\NC(=O)CCc1ccccc1)C1C(=O)c2ccccc2C1=O
37 | 40µM* | -21% | -11% | -22% | -13% | C/C(=N\NC(=O)c1cccc(Cl)c1)C1C(=O)c2ccccc2C1=O
38 | 4% | 103% | . | 44% | -13% | COc1ccc(OC)c(CNC(=O)c2cc3c(-c4ccc(OC)c(OC)c4)nn(C)c3s2)c1
39 | 1% | -9% | -2% | 6.3µM* | -46% | Cc1ccc(NC(=S)N/C(=N/S(=O)(=O)c2ccccc2)c2ccccc2)cc1
40 | -1% | 1% | -3% | 8.9µM* | -36% | Cc1ccc(S(=O)(=O)/N=C(/NC(=S)Nc2ccccc2)c2ccccc2)cc1
41 | 0% | 3% | . | 12% | -19% | CCN1CCN(c2cc(C)c3cc(NC(=O)/C=C/c4ccc(C)cc4)ccc3n2)CC1
42 | 1% | 2% | . | 38% | ? | Cc1ccc(C)c(N2CCN(C(=O)C(CC(C)C)NS(=O)(=O)c3ccc4nc(C)sc4c3)CC2)c1 (stereo not drawn)
43 | 0% | . | . | . | . | Cc1ccc(CN2CCc3nnc(C(NC(=O)c4ccoc4)C(C)C)n3CC2)cc1C (stereo not drawn)
44 | ? | 4%[57.1 µM] | . | 15%[57.1 µM] | -19% | CCOc1ccc(-n2ccnc2SCC(=O)Nc2nc3ccc(C)cc3s2)cc1
45 | -1% | 14µM* | . | ? | . | CCn1nc(-c2ccccc2C)nc2c(=O)n(C)c(=O)nc1-2

Sorted by molecular weight (rising): four of the compounds above
nr | PINK1 modulator | TrxR1 substrate | GALK inhibitor | rTrxR1 inhibitor | miR-21 reporter | structure
35 | 40µM* | -9% | 3% | -11% | 3% | FC(F)(F)c1cnc2c(c1)[nH]c(=S)n2-c1ccc(Cl)cc1
37 | 40µM* | -21% | -11% | -22% | -13% | C/C(=N\NC(=O)c1cccc(Cl)c1)C1C(=O)c2ccccc2C1=O
32 | 40µM* | -8% | -2% | 11% | -48% | CCOC(=O)Cc1csc(NC(=O)c2sc3nc4ccc(CC)cc4cc3c2N)n1
38 | 4% | 103% | . | 44% | -13% | COc1ccc(OC)c(CNC(=O)c2cc3c(-c4ccc(OC)c(OC)c4)nn(C)c3s2)c1

Next section.
nr | PINK1 modulator | TrxR1 substrate | GALK inhibitor | rTrxR1 inhibitor | miR-21 reporter | structure
46 | 0% | . | . | . | . | N#Cc1cccc(NC(=O)N2CC[C@@]3(CCCN(C(=O)c4ccco4)C3)C2)c1
47 | 11µM* | -7% | 3% | ? | -1% | Cc1ccc(CN=Cc2[nH]c3ccc(Br)c(Cl)c3c2O)cc1
48 | . | . | 0% | . | -2% | Oc1c(C=NCc2ccc(F)cc2)[nH]c2ccc(Br)c(Cl)c12
49 | -1% | 2%[57.1 µM] | -3% | 11µM* | -3% | CC(=O)C1=C(C)OC(N)=C(C#N)C1c1ccco1 (stereo not drawn)
50 | 1% | 6% | . | 11% | . | Cn1c2ccccc2c2nnc(SCCOc3ccccc3)nc21

Bioassay records: PubChem BioAssay, National Center for Advancing Translational Sciences (NCATS)
